Ki data for 56 molecules are collected here from ChEMBL document CHEMBL5728057, “3-((hetero-)aryl)-8-amino-2-oxo-1,3-diaza-spiro-[4.5]-decane derivatives” (2020).

Protein sequences, listed by entry. Tags and fused reporters are not part of them. Lines headed by an entry give the natural chain unless they say otherwise; changes in a name come on top.
UniProt P41146: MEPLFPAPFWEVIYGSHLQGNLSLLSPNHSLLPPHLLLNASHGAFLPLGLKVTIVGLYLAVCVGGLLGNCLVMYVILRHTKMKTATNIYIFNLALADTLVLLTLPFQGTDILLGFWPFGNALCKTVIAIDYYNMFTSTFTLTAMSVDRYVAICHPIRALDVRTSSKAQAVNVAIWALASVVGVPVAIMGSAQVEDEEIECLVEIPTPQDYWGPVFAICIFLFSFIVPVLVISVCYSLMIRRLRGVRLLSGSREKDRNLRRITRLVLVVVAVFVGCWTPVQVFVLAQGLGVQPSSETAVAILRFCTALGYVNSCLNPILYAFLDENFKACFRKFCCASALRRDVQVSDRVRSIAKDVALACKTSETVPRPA

SMILES strings stand for the structures.

Usually Ki stands for a measure of affinity in units of concentration, obtained from inhibition or displacement. The low end stands for higher affinity, the high end for lower affinity.

This experiment deals with Nociceptin receptor (Homo sapiens, UniProt P41146). The experiment in a line: Human Nociceptin/Orphanin FQ Peptide (hNOP) Receptor Binding Assay: The hNOP receptor binding assay was performed as homogeneous SPA-assay (scintillation proximity assay) using the assay buffer 50 mM TRIS-HCl. 10 mM MgCl2. 1 mM EDTA (pH 7.4). The final assay volume (250 μl/well) included 0.5 nM of [leucyl-3H]nociceptin as ligand (PerkinElmer Life Sciences. Inc. Boston. Mass. USA). and either test. A general note: SPA uses beads or plates that emit light when radiolabelled molecules are held near them.

The molecule `Cc1ncc(N2C[C@]3(CC[C@](c4ccccc4)(N(C)C)CC3)NC2=O)cn1` returned a Ki of 205 nM. Consider `CN(C(=O)C1CC1)c1ncc(N2C[C@]3(CC[C@](c4ccccc4)(N(C)C)CC3)NC2=O)cn1`, for which the Ki worked out at 19 nM. Molecule `CN(C)[C@]1(c2ccccc2)CC[C@]2(CC1)CN(c1cnc(C(F)(F)F)cc1C(F)(F)F)C(=O)N2` returned a Ki of 13 nM.

The molecule `CN(C)[C@]1(c2ccccc2)CC[C@]2(CC1)CN(c1cnc(N3CCC(O)CC3)nc1)C(=O)N2` registered a Ki of 11 nM. To `CN(C)[C@]1(c2ccccc2)CC[C@]2(CC1)CN(c1cnc(NC(=O)c3cccs3)nc1)C(=O)N2` belongs 15 nM. To `CN(C)[C@]1(c2ccccc2)CC[C@]2(CC1)CN(c1cnc(O)nc1)C(=O)N2CC1(O)CCC1` belongs 7.7 nM; to `Cc1nc(N2CCOCC2)ncc1N1C[C@]2(CC[C@](c3ccc(F)cc3)(N(C)C)CC2)NC1=O`, 240 nM. To `CN(C)[C@]1(c2ccccc2)CC[C@]2(CC1)CN(c1cnccc1CC(N)=O)C(=O)N2` belongs 150 nM. `CN[C@]1(c2ccccc2)CC[C@]2(CC1)CN(c1ccc(S(C)(=O)=O)cc1)C(=O)N2CC1CC1` returned a Ki of 8 nM. To `Cc1cc(C(=O)N(C)c2ncc(N3C[C@]4(CC[C@](c5ccccc5)(N(C)C)CC4)NC3=O)cn2)n(C)n1` belongs 55 nM.

`CN(C)[C@]1(c2ccccc2)CC[C@]2(CC1)CN(c1cnc(N3CCOCC3)nc1)C(=O)N2` displayed an inhibition constant (Ki) of 30 nM.

In the case of `CN[C@]1(c2ccccc2)CC[C@]2(CC1)CN(c1ccc(C#N)cc1OC)C(=O)N2`, the Ki amounted to 460 nM. Turning to `CN(CC1CC1)[C@]1(c2ccccc2)CC[C@]2(CC1)CN(c1cnc(C(F)(F)F)nc1)C(=O)N2`, the Ki was found to be 540 nM.

As for `CN[C@]1(c2ccccc2)CC[C@]2(CC1)CN(c1cnc(C#N)nc1OC)C(=O)N2`, the Ki was determined as 80 nM. Compared with the last molecule, the Ki is about 6.8-fold lower.

In turn, `Cc1cc(C(F)(F)F)ncc1N1C[C@]2(CC[C@](c3cccc(Cl)c3)(N(C)C)CC2)NC1=O` yielded a Ki of 88 nM. To `CN[C@]1(c2ccccc2)CC[C@]2(CC1)CN(c1ccccc1)C(=O)N2CC(=O)N(C)C` belongs 955 nM.

Molecule `CN(C)[C@]1(c2ccccc2)CC[C@]2(CC1)CN(c1cnccc1F)C(=O)N2` yielded an inhibitory constant (Ki) of 105 nM. To `CN(C)S(=O)(=O)c1ccc(N2C[C@]3(CC[C@](c4ccccc4)(N(C)C)CC3)N(CC3CCC3)C2=O)c(C(F)(F)F)c1` belongs 3.3 nM. To `CN(C)[C@]1(c2ccccc2)CC[C@]2(CC1)CN(c1ccccc1OCC(=O)O)C(=O)N2` belongs 635 nM. Molecule `CC(=O)N1CCN(c2ncc(N3C[C@]4(CC[C@](c5ccccc5)(N(C)C)CC4)NC3=O)c(C(F)(F)F)n2)CC1` registered a Ki of 20 nM.

`CN(C)[C@]1(c2ccccc2)CC[C@]2(CC1)CN(c1cncnc1)C(=O)N2` returned a Ki of 570 nM. To `CN(C)[C@]1(c2cccc(F)c2)CC[C@]2(CC1)CN(c1ccc(S(C)(=O)=O)cn1)C(=O)N2` belongs 11 nM; to `COc1cccc([C@]2(N(C)C)CC[C@@]3(CC2)CN(c2cnc(C(F)(F)F)cc2C)C(=O)N3)c1`, 195 nM. `CN(C)C(=O)CN1C(=O)N(c2ccnc(C#N)n2)C[C@]12CC[C@](c1ccccc1)(N(C)C)CC2`: the Ki came to 85 nM. To `CN(C)[C@]1(c2ccccc2)CC[C@]2(CC1)CN(c1ncc(C(F)(F)F)cc1C(F)(F)F)C(=O)N2` belongs 53 nM; to `CN(C)[C@]1(c2ccccc2)CC[C@]2(CC1)CN(c1ccc(S(C)(=O)=O)cc1)C(=O)N2`, 38 nM. To `CN(C)[C@]1(c2ccccc2)CC[C@]2(CC1)CN(c1cnc(N3CCOCC3)cc1C#N)C(=O)N2` belongs 24 nM; to `CN(C)[C@]1(c2ccccc2)CC[C@]2(CC1)CN(c1cnc(NCc3ccccc3)nc1)C(=O)N2`, 19 nM; to `CN[C@]1(c2ccccc2)CC[C@]2(CC1)CN(c1cnc(C#N)nc1OC)C(=O)N2CCCOC`, 55.5 nM. To `Cc1ncc(N2C[C@]3(CC[C@](c4ccccc4)(N(C)C)CC3)NC2=O)c(C)n1` belongs 27 nM; to `CN(C)[C@]1(c2ccccc2)CC[C@]2(CC1)CN(c1ccc(OC(F)(F)F)cc1)C(=O)N2`, 27 nM.

`Cc1cc(C(F)(F)F)ncc1N1C[C@]2(CC[C@@](c3cccs3)(N(C)C)CC2)NC1=O` showed a Ki of 11 nM. This Ki is about 2.5-fold lower than that of the molecule before. To `CN(C)[C@]1(c2ccccc2)CC[C@]2(CC1)CN(c1ccc(C(N)=O)cn1)C(=O)N2` belongs 31 nM; to `CN(C)[C@]1(c2ccccc2)CC[C@]2(CC1)CN(c1cnc(NC3CCOCC3)nc1)C(=O)N2`, 22 nM. In turn, `COCCN1C(=O)N(c2ccnc(C#N)n2)C[C@]12CC[C@](c1ccccc1)(N(C)C)CC2` returned an inhibition constant Ki of 13.9 nM. The molecule `Cc1cc(C(F)(F)F)ncc1N1C[C@]2(CC[C@](c3cccs3)(N(C)C)CC2)NC1=O` displayed an inhibitory constant (Ki) of 23 nM. To `Cc1cc(C(N)=O)cnc1N1C[C@]2(CC[C@](c3ccccc3)(N(C)C)CC2)NC1=O` belongs 27 nM; to `CN(C)[C@]1(c2ccccc2)CC[C@]2(CC1)CN(c1cnc(-c3cncnc3)nc1)C(=O)N2`, 130 nM; to `CCN(C)[C@]1(c2ccccc2)CC[C@]2(CC1)CN(c1ccc(C#N)cc1)C(=O)N2CC1CCC1`, 107 nM. To `CN(C)[C@]1(c2ccccc2)CC[C@]2(CC1)CN(c1ccc(S(C)(=O)=O)cn1)C(=O)N2` belongs 14 nM. To `CN(C)[C@]1(c2ccccc2)CC[C@]2(CC1)CN(c1ccc(C(F)(F)F)nc1)C(=O)N2` belongs 52 nM; to `CN(C)[C@]1(c2ccccc2)CC[C@]2(CC1)CN(c1ccccc1F)C(=O)N2`, 41 nM. Regarding `CCN[C@]1(c2ccccc2)CC[C@]2(CC1)CN(c1cnc(C(F)(F)F)nc1)C(=O)N2CC1(O)CCC1`, affinity was put at a Ki of 155 nM. This Ki lies about 3.8-fold higher than the previous one. To `CN(C)[C@]1(c2ccccc2)CC[C@]2(CC1)CN(c1cnc(C#N)nc1)C(=O)N2CC1CC1` belongs 10.8 nM; to `CN(C)[C@]1(c2ccccc2)CC[C@]2(CC1)CN(c1cnc(N3CCS(=O)(=O)CC3)nc1C(F)(F)F)C(=O)N2`, 83 nM. To `CN(C)[C@]1(c2ccccc2)CC[C@]2(CC1)CN(c1ccccc1C(N)=O)C(=O)N2CC1(O)CCC1` belongs 5 nM; to `CN(C)[C@]1(c2ccccc2)CC[C@]2(CC1)CN(c1ccc(-c3ccccc3)s1)C(=O)N2`, 119 nM. To `CN(C)[C@]1(c2ccccc2)CC[C@]2(CC1)CN(c1cnc(-c3ccccn3)nc1)C(=O)N2` belongs 5 nM; to `CN(C)[C@]1(c2ccccc2)CC[C@]2(CC1)CN(c1cnc(NC(=O)c3ccccc3)nc1)C(=O)N2`, 18 nM; to `Cc1cc(C(F)(F)F)ncc1N1C[C@]2(CC[C@](c3cccc(C(F)(F)F)c3)(N(C)C)CC2)NC1=O`, 1220 nM. Consider `CN(C)[C@]1(c2ccccc2)CC[C@]2(CC1)CN(c1cccc3[nH]ccc13)C(=O)N2`, for which the affinity, expressed as Ki, was 20 nM. Consider `CN(C)[C@]1(c2ccccc2)CC[C@]2(CC1)CN(c1cnc(-c3ccc(F)c(F)c3)nc1)C(=O)N2`, for which the Ki was 20 nM. To `CN1CCN(C(=O)c2ncc(N3C[C@]4(CC[C@](c5ccccc5)(N(C)C)CC4)NC3=O)cn2)CC1` belongs 19 nM.

For the molecule `Cc1cccnc1N1C[C@]2(CC[C@](c3ccccc3)(N(C)C)CC2)NC1=O`, the inhibition constant Ki stood at 110 nM. This Ki is about 5.8-fold higher than that of the molecule before. To `CN(C)[C@]1(c2ccccc2)CC[C@]2(CC1)CN(c1cnc(N3CCN(CC(=O)O)CC3)nc1)C(=O)N2` belongs 52 nM; to `COC(=O)COc1ccccc1N1C[C@]2(CC[C@](c3ccccc3)(N(C)C)CC2)NC1=O`, 30 nM.
